Source: ChEMBL document CHEMBL3779820, “Discovery of a Novel Inhibitor of Histone Lysine-Specific Demethylase 1A (KDM1A/LSD1) as Orally Active Antitumor Agent” (J Med Chem, 2016)
pIC50: −log10 of the molar value.

Chains of the proteins cited; added tags and fusions are not shown.
UniProt P21397, whole entry: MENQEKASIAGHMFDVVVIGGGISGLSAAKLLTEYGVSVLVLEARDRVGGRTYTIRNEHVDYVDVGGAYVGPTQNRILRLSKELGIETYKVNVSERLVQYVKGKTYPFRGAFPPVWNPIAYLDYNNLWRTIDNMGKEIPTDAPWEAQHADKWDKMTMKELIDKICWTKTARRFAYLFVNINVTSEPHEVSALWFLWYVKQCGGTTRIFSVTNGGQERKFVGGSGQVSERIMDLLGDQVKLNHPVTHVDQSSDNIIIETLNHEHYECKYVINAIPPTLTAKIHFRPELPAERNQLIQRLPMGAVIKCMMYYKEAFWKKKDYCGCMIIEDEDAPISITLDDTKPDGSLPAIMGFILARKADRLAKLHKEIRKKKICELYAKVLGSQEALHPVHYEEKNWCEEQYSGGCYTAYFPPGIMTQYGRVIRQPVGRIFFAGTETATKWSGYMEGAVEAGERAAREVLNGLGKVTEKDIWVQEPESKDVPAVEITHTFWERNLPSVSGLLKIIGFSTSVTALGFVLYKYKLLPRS
UniProt P27338, whole entry: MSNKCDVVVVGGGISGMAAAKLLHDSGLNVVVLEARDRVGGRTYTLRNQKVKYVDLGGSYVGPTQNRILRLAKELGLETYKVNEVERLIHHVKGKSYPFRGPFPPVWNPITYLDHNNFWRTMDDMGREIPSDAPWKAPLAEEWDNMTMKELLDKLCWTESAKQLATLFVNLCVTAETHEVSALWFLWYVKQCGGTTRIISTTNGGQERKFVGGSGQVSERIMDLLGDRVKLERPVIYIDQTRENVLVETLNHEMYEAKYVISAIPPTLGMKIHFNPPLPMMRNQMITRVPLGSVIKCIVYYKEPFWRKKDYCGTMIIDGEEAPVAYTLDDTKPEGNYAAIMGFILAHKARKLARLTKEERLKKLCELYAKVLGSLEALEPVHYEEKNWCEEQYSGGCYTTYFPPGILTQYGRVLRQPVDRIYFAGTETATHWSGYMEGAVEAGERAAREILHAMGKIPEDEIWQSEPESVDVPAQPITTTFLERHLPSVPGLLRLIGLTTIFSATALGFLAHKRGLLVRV

What was measured:
[1] = biological target: Amine oxidase [flavin-containing] A (Homo sapiens, UniProt P21397); test: Inhibition of human recombinant MAOA expressed in Pichia pastoris preincubated for 15 mins measured after 30 mins by bioluminescent-coupled assay
How it was run: (§1)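 Human recombinant KDM1A/CoREST, KDM1B, MAO A and MAO B used as enzyme sources; compounds incubated with the enzyme and results expressed as IC50.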

[2] = biological target: Amine oxidase [flavin-containing] B (Homo sapiens, UniProt P27338); test: Inhibition of human recombinant MAOB expressed in Pichia pastoris preincubated for 15 mins measured after 30 mins by bioluminescent-coupled assay; how it was run: as §1

N[C@@H]1C[C@H]1c1ccc(NC(=O)c2ccccc2)cc1
pIC50 [1]: 7.51
pIC50 [2]: 5.05

N[C@H]1CC[C@H](N[C@@H]2C[C@H]2c2ccccc2)CC1
pIC50 [2]: < 4.00
